The assay has as its system NMDA receptor currents in CA1 hippocampal pyramidal cells.

Where two headings read alike, the source gives them in different places.

As to `Cc1ccccc1CN1CCC(N2CCC(n3c(=O)[nH]c4ccccc43)CC2)CC1` [TBPB], where the note is “3 μM, approximately 8 min after initial application, n = 6”, the “peak amplitude of NMDAR currents, % of baseline” value was found to be 135.1±5.8%. Also, the “peak potentiation of NMDA-evoked currents” value is, setting by setting: (TBPB 3 μM alone) 40.4±6.4%; (TBPB 3 μM in combination with atropine 1 μM, n = 5) 5.1±5.8%.

For the origin of these results see paper PMC2577155 (The Journal of neuroscience : the official journal of the …, 2008).
